This is an account of results in PubChem BioAssay AID2662 (National Center for Advancing Translational Sciences (NCATS), 2010).

Amino acid sequences for entries named in this document (tags omitted).
UniProt Q03164, whole entry, looked up: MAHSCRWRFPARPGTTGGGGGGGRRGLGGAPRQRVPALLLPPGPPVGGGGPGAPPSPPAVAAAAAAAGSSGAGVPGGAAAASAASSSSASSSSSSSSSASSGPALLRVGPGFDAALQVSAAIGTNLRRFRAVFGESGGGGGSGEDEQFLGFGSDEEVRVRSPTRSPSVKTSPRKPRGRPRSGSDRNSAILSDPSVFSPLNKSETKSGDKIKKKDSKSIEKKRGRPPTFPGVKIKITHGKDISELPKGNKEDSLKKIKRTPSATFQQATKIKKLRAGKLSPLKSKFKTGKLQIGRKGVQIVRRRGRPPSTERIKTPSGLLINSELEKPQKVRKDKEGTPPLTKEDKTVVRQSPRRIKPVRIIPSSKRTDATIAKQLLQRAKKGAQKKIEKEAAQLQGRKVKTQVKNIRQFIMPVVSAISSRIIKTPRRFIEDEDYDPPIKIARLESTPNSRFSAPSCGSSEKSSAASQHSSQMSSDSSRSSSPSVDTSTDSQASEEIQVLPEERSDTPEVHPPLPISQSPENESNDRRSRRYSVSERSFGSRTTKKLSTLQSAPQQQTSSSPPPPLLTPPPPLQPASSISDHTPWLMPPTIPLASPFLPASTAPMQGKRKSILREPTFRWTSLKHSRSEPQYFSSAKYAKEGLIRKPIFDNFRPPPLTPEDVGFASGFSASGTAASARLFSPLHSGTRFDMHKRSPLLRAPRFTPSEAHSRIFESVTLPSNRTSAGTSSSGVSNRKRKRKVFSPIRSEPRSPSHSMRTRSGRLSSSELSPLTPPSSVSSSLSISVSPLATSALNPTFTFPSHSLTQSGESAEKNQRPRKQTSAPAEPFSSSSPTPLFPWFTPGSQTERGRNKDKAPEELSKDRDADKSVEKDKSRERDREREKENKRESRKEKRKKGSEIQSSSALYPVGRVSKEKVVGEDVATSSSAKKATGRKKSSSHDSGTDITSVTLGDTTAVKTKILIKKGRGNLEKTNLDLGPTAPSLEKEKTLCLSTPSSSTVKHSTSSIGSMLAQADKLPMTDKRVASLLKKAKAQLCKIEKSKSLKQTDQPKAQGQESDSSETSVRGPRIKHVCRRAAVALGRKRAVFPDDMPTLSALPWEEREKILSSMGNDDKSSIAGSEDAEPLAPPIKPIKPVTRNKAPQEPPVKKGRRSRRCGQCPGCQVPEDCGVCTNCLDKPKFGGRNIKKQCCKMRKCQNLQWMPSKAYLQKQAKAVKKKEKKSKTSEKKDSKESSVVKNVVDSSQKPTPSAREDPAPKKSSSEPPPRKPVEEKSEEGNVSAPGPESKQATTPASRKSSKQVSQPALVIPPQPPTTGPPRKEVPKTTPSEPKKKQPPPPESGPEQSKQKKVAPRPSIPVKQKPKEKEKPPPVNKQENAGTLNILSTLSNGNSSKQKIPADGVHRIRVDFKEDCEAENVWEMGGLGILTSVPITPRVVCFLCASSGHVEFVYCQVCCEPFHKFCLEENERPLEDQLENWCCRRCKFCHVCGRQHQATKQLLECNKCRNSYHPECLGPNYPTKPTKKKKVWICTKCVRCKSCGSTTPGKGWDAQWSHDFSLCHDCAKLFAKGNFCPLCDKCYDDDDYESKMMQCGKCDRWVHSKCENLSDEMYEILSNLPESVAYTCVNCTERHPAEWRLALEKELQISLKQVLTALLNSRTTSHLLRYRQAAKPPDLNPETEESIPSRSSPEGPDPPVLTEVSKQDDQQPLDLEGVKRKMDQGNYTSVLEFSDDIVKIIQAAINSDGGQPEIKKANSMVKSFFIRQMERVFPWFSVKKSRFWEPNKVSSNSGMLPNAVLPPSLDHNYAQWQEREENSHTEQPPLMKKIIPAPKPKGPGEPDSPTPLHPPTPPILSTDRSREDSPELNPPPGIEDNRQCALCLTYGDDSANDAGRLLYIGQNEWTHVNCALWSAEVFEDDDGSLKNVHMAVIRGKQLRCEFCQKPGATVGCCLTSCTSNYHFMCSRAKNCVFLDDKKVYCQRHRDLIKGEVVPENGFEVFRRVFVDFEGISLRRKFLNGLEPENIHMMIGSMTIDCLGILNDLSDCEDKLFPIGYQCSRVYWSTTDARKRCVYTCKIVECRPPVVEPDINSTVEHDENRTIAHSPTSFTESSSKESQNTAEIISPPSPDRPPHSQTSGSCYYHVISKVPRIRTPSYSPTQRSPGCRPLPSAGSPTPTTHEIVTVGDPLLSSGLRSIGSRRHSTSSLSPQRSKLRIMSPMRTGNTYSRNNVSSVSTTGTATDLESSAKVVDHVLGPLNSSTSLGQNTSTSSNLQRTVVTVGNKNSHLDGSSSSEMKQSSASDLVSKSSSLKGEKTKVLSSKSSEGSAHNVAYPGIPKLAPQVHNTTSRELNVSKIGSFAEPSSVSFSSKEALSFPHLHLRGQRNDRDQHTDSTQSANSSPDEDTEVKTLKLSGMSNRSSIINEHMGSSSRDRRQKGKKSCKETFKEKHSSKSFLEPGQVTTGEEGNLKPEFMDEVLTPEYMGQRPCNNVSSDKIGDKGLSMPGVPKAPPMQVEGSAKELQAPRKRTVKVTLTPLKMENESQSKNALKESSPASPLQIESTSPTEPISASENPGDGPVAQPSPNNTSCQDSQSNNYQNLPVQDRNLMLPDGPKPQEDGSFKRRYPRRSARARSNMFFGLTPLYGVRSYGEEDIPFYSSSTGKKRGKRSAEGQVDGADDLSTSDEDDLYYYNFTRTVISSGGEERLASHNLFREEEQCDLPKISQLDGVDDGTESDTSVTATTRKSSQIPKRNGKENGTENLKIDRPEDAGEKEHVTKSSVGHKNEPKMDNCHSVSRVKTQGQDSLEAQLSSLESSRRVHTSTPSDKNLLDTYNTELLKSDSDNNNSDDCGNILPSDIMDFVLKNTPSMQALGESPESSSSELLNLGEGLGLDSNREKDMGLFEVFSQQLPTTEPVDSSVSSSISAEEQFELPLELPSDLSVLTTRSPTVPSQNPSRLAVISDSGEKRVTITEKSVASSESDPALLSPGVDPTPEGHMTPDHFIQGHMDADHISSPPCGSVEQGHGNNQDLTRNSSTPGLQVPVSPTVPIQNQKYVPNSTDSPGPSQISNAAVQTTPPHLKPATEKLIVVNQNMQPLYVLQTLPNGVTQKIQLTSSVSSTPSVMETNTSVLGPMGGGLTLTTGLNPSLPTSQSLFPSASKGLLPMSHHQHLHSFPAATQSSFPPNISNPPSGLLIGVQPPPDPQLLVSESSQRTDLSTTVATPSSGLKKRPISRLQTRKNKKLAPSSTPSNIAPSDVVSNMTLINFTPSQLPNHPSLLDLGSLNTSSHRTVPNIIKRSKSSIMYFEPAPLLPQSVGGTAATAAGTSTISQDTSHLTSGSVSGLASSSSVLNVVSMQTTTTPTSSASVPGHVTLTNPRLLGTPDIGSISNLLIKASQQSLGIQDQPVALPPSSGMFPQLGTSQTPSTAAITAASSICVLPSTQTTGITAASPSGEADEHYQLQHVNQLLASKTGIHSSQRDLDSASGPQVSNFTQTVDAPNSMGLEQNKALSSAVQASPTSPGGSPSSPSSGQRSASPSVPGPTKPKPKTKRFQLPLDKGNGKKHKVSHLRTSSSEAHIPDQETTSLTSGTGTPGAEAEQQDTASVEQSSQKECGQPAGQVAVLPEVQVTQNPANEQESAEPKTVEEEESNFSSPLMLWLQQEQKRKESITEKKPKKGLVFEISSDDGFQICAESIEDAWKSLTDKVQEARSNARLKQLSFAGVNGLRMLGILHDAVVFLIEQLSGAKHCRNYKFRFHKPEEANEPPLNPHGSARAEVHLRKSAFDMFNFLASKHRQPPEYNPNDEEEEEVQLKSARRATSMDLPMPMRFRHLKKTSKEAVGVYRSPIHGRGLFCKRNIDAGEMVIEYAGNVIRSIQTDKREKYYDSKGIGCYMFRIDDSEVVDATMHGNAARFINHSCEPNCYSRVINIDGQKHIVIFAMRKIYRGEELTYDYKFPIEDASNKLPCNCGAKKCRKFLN

Only a part is listed here, and it is no random draw. Active and inactive are the calls of the source. Calls come from the whole dose curve; as a rule, active = well fitted inhibition curve with a large enough effect in the polarisation, with a control signal flat (not every such curve was filed as active); inconclusive = small, poorly fitted or top-dose-only effect, or effect the other way, or a change in a side signal; inactive = no such curve, though single readings can be large or run the other way; the % refers to the polarisation.

This assay deals with Histone-lysine N-methyltransferase 2A (Homo sapiens) (UniProt Q03164). As to the kind of experiment: qHTS Fluorescence Polarization Assay for Inhibitors of MLL CXXC domain - DNA interaction. Particulars: MLL-CXXC / FITC-HOXA9 DNA fluorescence polarization; at 115 µM (top of the series). Background: In qHTS, concentration-response curves come from the screen itself.
Turning to `O=C(O)CNc1ccc([As](=O)(O)O)cc1`, the activity change, negative = inhibition is inactive: -4.41%. Regarding `O=[N+]([O-])c1cccc(NC2=NCC(CBr)S2)c1` (configuration not stated), the activity change, negative = inhibition was inactive: -1.81%.

As for `O=[N+]([O-])c1ncn(CCn2ncnc2[N+](=O)[O-])n1`, the activity change, negative = inhibition is inactive: -4.72%. In the case of `CC(C)(C)C(=O)NC(Sc1ccncn1)C(Cl)(Cl)Cl` (configuration not stated), the activity change, negative = inhibition was inactive: -0.115%. With `O=C(Nc1cc([As](=O)(O)O)ccc1O)c1ccccc1`, the activity change, negative = inhibition is inactive: 12.6%.

With `CC1CCN(C(=O)Oc2c(Cl)cc(Cl)c3cccnc23)CC1`, the activity change, negative = inhibition is inactive: -20.8%. Under `CC(C)=N/N=C(\N)N[N+](=O)[O-]` stands inactive: -9.08%; under `CN(C)C(=O)OCCc1n(C)cc[n+]1C`, inactive: 1.32%. On to `CCN(/C(=N/P(=O)(N1CCOCC1)N1CCOCC1)N1CCOCC1)c1ccc(OC)cc1`, for which the activity change, negative = inhibition was inactive: -0.395%. With `Nc1ccc([As](=O)(O)c2ccc(N)cc2)cc1`, the activity change, negative = inhibition is inactive: -14.4%. Take `C[N+]1=C2C=CC=CC=C2SC12C([N+](=O)[O-])=CC([N+](=O)[O-])=C[C-]2[N+](=O)[O-]` (configuration not stated): the activity change, negative = inhibition is inactive: -19.8%.

Consider `Cc1ccc(NP(=O)(Oc2ccccc2)Oc2ccccc2)nc1`, for which the activity change, negative = inhibition was inactive: 3.13%.

Turning to `O=[N+]([O-])c1cc([N+](=O)[O-])c(CCNc2ccccc2)c([N+](=O)[O-])c1`, the activity change, negative = inhibition was inactive: -2.12%.

Turning to `CC(=O)N1C2C3N(C(C)=O)C1C1N(C(C)=O)C(C(N1C(C)=O)N3C(C)=O)N2C(C)=O`, the activity change, negative = inhibition was inactive: 0.721%.

Take `O=[N+]([O-])c1cccc2n[nH]nc12`: the activity change, negative = inhibition is inactive: 14.6%.

Turning to `COc1ccc(C2=NCC(CBr)S2)cc1` (configuration not stated), the activity change, negative = inhibition is inactive: 11.3%. For `Oc1ccccc1CNc1ccccn1`, the activity change, negative = inhibition was inactive: 8.02%. Next, `O=C(NC(Sc1ccncn1)C(Cl)(Cl)Cl)c1ccccc1` (configuration not stated): inactive: 4.34%; `Cc1c2non([O-])c-2c(C)[n+](=O)[n+]1[O-]`: inactive: -21.8%; `Nc1cc(N)c2nonc2c1[N+](=O)[O-]`: inactive: -3.15%.

In the case of `CC(C)CC(=O)NC(Sc1ccc(Cl)cc1)C(Cl)(Cl)Cl` (configuration not stated), the activity change, negative = inhibition was inactive: -7.93%. Under `CN1CCCC(OC(=O)C(c2ccccc2)c2ccccc2)C1` (configuration not stated) stands inactive: -1.45%; under `Clc1ccc(Cl)c(NC2=NCC(CBr)S2)c1` (configuration not stated), inactive: 14.1%; under `COc1ccccc1OP(=O)(Nc1ccc(C)cn1)Oc1ccccc1OC`, inactive: 3.9%. `Cc1ccc(OP(=O)(Nc2nccs2)Oc2ccc(C)cc2)cc1`: the activity change, negative = inhibition is inactive: 5.92%. Under `Cc1ccc(N/C(=N/P(=O)(N2CCOCC2)N2CCOCC2)N2CCOCC2)cc1` stands inactive: 2.36%; under `NC(=O)c1cc([N+](=O)[O-])cc([N+](=O)[O-])c1N`, inactive: 0.999%.
